According to ChEMBL document CHEMBL2380221, “Discovery of novel STAT3 small molecule inhibitors via in silico site-directed fragment-based drug design” (J Med Chem, 2013):

Tested on: HPAC
Assay: Cytotoxicity against human HPAC cells assessed as cell viability after 72 hrs by MTT assay
Assay type: functional, cell-based

## NS(=O)(=O)c1cccc2c1C(=O)c1cccc(O)c1C2=O
  IC50: 0.16 µM
